Antibody variant affinities, Ab-95 light chain, assay 2

Reference: Engelhart et al. 2022, doi:10.1038/s41597-022-01779-4. File: FLAb, binding data.

The target is the same throughout: PDVDLGDISGINAS, from the HR2 region of SARS-CoV-2 spike.

Each scFv is VH, the linker GGGGSGGGGSGGGGS, VL, as in the parent Ab-95, and differs from it in the CDRs of the light chain only.
VH: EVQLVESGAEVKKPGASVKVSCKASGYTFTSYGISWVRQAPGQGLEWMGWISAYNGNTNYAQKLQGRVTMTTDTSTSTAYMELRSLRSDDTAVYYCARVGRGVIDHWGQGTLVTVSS
VL: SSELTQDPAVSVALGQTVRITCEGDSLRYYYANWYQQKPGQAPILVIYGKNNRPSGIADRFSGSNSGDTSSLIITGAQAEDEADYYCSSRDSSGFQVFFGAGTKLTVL

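The starting antibody came from a phage panning campaign against this peptide. Library AAYL52 holds single substitutions and randomly drawn double and triple substitutions in the CDRs. The assay is AlphaSeq: two haploid yeast populations carry antibody and antigen on their surface. Pairs that bind mate more often; barcode pairs of the diploids are counted by sequencing. Each replicate has its own calibration line, from reference interactions of the BCL2 family. The assay was run in three technical replicates.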

Variants are written as CDR1, CDR2 and CDR3 of the light chain (limits as in the source). Parent: EGDSLRYYYAN, GKNNRPS, SSRDSSGFQVF. Values are log10 of the apparent Kd in nM; lower means stronger binding. An entry "nd" has no value in the source: the pair was not observed among the diploids in that replicate. This suggests poor binding but is not conclusive.

| CDR-L1 | CDR-L2 | CDR-L3 | log10 Kd (nM) by replicate | signal with controls |
|---|---|---|---|---|
| EGDSLRYYYEN | GKNNHPS | SSRDSSGFQVF | 3.63 / nd / nd | 3/9 (3.83) |
| EGDSLRYYYAN | GSNNRIS | SSRDSSGFQVF | 4.02 / nd / nd | 0/9 |
| RGDSLRYYYAN | GKNSRPS | SSRDYSGFQVF | 3.09 / 2.43 / 2.03 | 1/9 (3.04) |
| EGDSLVYYYAN | GKNNRGS | SSFDSSGFQVF | 3.54 / 4.63 / 3.91 | 3/9 (3.79) |
| EGDSLRYVYAN | GKNNRPS | SSRDSSHFIVF | nd / nd / nd | 1/9 (2.55) |
| EGMSLRIYYAN | GKNNSPS | SSRDSSGFQVF | 3.71 / 3.10 / nd | 4/9 (4.28) |
| EGDSPRYYYAN | DKNNRPS | STRDSSGFQVF | 2.48 / 3.25 / nd | 3/9 (3.94) |
| HGDSLRYYYAN | GKNNPPS | SSRDMSGFQVF | 4.08 / nd / nd | 3/9 (3.44) |
| ERDSLRYYYAN | GKDNRLS | SSRDSSGFQVF | nd / nd / 4.19 | 1/9 (3.10) |
| EGDSLSYYYAN | GKNTRPS | SSRDNSGFQVF | 3.14 / 3.45 / 2.36 | 1/9 (2.65) |
| EGDSIRYYFAD | GKNNRPS | SSRDSSGFQVF | 2.52 / 1.92 / 2.06 | 0/9 |
| EGDSLRDYYAN | GKHNRPS | SSDDSSGFQVF | nd / nd / 3.88 | 5/9 (4.23) |
| EHDSLRYYYQN | GKNNRPS | SSRDSSGTQVF | 3.85 / 3.26 / 4.35 | 2/9 (4.04) |
| EGDSLRYSYAN | GKNNRPS | SSRDSSVFQVF | 1.25 / 1.28 / 0.79 | 6/9 (3.66) |
| EGNSLRYYYAN | GKNNRPS | SSRDRSGFQIF | 2.29 / 4.17 / 2.60 | 2/9 (4.21) |
| EGDSLWYYYAN | GKNNRPS | SSQDISGFQVF | 4.33 / nd / nd | 1/9 (4.10) |
| EGDSLRVYYAN | GKNNRPS | SFRDSSGFQVP | nd / 3.18 / nd | 2/9 (3.52) |
| EGDWLRYYYAN | GKNNRPS | SSYDSKGFQVF | nd / nd / 4.23 | 1/9 (4.56) |
| EGDSLRYYYAN | GKNYRPS | SSRDSMGFQIF | nd / nd / 3.55 | 2/9 (3.95) |
| EGDSLRYYYAN | GKNNRWS | SSRDSSGFQVF | 3.46 / 2.58 / 3.41 | 1/9 (4.45) |
| EGDSLTYYYAR | GKNNRGS | SSRDSSGFQVF | 5.24 / nd / 4.28 | 3/9 (4.00) |
| ECDSLRYYYAN | GKNNRPS | WSRDSSGFQVF | nd / nd / nd | 2/9 (3.59) |
| EGDSLRYYYAN | GKNNRPS | SSTDSSGMQTF | nd / nd / nd | 3/9 (3.93) |
| EGDSLRYRYAN | CKNNRPS | SSRDSSGFVVF | nd / nd / nd | 2/9 (3.56) |
| ENDSLRHYFAN | GKNNRPS | SSRDSSGFQVF | 3.23 / 2.69 / 2.08 | 1/9 (4.16) |
| EGASLRYYYAN | GHMNRPS | SSRDSSGFQVF | 3.30 / nd / 2.74 | 3/9 (4.36) |
| EADSLRYYYAN | GKNNRPS | SSHDSEGFQVF | 3.57 / 3.43 / 2.77 | 5/9 (3.93) |
| EGDSLRVYYAN | GKNNRPT | SSRDSSGFPVF | nd / 4.90 / nd | 2/9 (3.81) |
| EADPLRYYYAN | GKNNRPS | YSRDSSGFQVF | 3.66 / nd / nd | 3/9 (4.21) |
| EGMSLRYYYAN | GKNNRPS | SSRDSWGFQVT | 2.83 / 3.20 / 4.22 | 4/9 (3.80) |
| EGDSIRYYYAN | GKNNRPS | SSRDGSGKQVF | 3.25 / 2.90 / 3.57 | 2/9 (4.49) |
| EGDSLEYYYAM | GKNNRPS | SSRDSNGFQVF | 3.50 / nd / nd | 2/9 (2.67) |
| EGDSLRYYYAN | GYNNRPS | SSRHSSGFQVF | 2.81 / 3.15 / 3.84 | 2/9 (3.73) |
| YDDSLRYYYAN | GKNNEPS | SSRDSSGFQVF | 5.48 / nd / nd | 1/9 (3.46) |
| EGDSLRYYYAN | GKNNNPS | STRDSSGMQVF | 2.21 / 2.23 / 2.21 | 2/9 (4.28) |
| EGDSLRYYYMN | LKNNRPS | SSRDSDGFQVF | nd / nd / 4.18 | 2/9 (4.51) |
| EGDSLEYYYAK | GKQNRPS | SSRDSSGFQVF | 3.50 / nd / nd | 1/9 (3.94) |
| EGDSLRYYYAN | GCNNRPS | STRDCSGFQVF | 3.23 / 3.10 / 3.54 | 6/9 (4.49) |
| EGDSLLYYYAN | GFNNRPS | SSRDSSGFQLF | 3.88 / nd / nd | 1/9 (4.01) |
| EGDSLFYYLAN | GKNNRPS | SSRDSSGFQVS | 3.04 / 3.55 / 4.01 | 1/9 (5.57) |
| EVDSLRYYYAN | HKNNRPS | SSRDTSGFQVF | 5.20 / nd / nd | 1/9 (4.48) |
| EGDSLRYYYMN | GKNSRPS | SSRDSSGFQVC | 4.05 / 4.06 / nd | 5/9 (4.28) |
| EWDSLRYYYAT | GKNPRPS | SSRDSSGFQVF | nd / nd / nd | 2/9 (3.98) |
| EGDSLRQYYAN | GKDRRPS | SSRDSSGFQVF | 3.07 / 2.92 / 2.54 | 1/9 (3.22) |
| EGDSLRLYYAN | GKNNRPS | SSHDSSGFQYF | nd / nd / nd | 1/9 (3.50) |
| EGDAERYYYAN | GKNNRPE | SSRDSSGFQVF | nd / 5.17 / 3.86 | 2/9 (4.74) |
| EGDILRYSYAG | GKNNRPS | SSRDSSGFQVF | 3.34 / 3.29 / 3.58 | 3/9 (4.71) |

A selection of 5 entries from above:

| CDR-L1 | CDR-L2 | CDR-L3 | log10 Kd (nM) by replicate | signal with controls |
|---|---|---|---|---|
| EGDSLRYYYEN | GKNNHPS | SSRDSSGFQVF | 3.63 / nd / nd | 3/9 (3.83) |
| EGDSIRYYFAD | GKNNRPS | SSRDSSGFQVF | 2.52 / 1.92 / 2.06 | 0/9 |
| EGDSIRYYYAN | GKNNRPS | SSRDGSGKQVF | 3.25 / 2.90 / 3.57 | 2/9 (4.49) |
| EGDSLRYYYAN | GSNNRIS | SSRDSSGFQVF | 4.02 / nd / nd | 0/9 |
| EGDSLLYYYAN | GFNNRPS | SSRDSSGFQLF | 3.88 / nd / nd | 1/9 (4.01) |

Empty control strains, which show no peptide, gave a signal in 28% of pairings with library AAYL52; the median was 3.91 and 95% of these signals were weaker than 2.90. No background was subtracted. For each scFv, signals with the empty controls are counted beside the result, with their mean in brackets.